Measured values as given in ChEMBL document CHEMBL3621077, “Synthesis of hybrid anticancer agents based on kinase and histone deacetylase inhibitors” (Medchemcomm, 2014).

By UniProt entry, the sequences of proteins in these tests, tags left out. Where a name states a change or a piece, a line headed by the entry shows the natural chain unless it says otherwise.
UniProt Q13547: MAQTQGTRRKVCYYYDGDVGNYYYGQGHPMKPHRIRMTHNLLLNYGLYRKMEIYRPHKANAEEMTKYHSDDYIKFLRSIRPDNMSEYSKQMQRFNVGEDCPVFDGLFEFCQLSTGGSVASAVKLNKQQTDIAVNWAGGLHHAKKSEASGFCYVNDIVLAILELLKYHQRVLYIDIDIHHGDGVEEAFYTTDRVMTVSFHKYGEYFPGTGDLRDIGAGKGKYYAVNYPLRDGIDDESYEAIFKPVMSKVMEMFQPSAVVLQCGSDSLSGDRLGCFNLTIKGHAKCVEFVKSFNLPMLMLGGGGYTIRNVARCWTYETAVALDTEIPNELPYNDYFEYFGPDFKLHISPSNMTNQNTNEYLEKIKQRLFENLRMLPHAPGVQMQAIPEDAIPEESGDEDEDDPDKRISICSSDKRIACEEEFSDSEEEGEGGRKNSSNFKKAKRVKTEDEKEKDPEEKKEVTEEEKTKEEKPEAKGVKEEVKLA
UniProt O15379: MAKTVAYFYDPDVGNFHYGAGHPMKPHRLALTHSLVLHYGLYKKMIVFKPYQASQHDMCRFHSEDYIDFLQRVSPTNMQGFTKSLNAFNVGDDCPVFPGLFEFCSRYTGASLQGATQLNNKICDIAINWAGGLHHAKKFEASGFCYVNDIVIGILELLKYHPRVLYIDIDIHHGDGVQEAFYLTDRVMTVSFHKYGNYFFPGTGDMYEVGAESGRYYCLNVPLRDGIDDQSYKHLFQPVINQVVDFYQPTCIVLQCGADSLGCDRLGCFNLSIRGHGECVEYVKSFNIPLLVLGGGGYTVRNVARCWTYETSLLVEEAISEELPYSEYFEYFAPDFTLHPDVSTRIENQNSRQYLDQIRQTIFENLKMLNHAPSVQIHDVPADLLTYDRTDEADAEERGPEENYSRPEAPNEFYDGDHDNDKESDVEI
UniProt Q92769: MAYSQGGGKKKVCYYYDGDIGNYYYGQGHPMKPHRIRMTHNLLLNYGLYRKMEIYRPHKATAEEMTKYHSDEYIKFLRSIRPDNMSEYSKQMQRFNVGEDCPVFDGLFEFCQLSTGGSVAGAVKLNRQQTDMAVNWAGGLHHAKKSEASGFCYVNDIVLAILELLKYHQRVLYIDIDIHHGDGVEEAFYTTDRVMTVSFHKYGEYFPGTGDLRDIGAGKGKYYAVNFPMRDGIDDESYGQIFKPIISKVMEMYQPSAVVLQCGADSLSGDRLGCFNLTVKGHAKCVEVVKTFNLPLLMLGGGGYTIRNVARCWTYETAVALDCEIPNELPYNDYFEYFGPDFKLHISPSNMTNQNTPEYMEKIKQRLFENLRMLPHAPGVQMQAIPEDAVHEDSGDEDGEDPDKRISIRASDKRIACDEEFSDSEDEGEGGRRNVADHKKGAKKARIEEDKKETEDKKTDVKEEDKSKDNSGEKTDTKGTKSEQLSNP
UniProt Q9UQL6: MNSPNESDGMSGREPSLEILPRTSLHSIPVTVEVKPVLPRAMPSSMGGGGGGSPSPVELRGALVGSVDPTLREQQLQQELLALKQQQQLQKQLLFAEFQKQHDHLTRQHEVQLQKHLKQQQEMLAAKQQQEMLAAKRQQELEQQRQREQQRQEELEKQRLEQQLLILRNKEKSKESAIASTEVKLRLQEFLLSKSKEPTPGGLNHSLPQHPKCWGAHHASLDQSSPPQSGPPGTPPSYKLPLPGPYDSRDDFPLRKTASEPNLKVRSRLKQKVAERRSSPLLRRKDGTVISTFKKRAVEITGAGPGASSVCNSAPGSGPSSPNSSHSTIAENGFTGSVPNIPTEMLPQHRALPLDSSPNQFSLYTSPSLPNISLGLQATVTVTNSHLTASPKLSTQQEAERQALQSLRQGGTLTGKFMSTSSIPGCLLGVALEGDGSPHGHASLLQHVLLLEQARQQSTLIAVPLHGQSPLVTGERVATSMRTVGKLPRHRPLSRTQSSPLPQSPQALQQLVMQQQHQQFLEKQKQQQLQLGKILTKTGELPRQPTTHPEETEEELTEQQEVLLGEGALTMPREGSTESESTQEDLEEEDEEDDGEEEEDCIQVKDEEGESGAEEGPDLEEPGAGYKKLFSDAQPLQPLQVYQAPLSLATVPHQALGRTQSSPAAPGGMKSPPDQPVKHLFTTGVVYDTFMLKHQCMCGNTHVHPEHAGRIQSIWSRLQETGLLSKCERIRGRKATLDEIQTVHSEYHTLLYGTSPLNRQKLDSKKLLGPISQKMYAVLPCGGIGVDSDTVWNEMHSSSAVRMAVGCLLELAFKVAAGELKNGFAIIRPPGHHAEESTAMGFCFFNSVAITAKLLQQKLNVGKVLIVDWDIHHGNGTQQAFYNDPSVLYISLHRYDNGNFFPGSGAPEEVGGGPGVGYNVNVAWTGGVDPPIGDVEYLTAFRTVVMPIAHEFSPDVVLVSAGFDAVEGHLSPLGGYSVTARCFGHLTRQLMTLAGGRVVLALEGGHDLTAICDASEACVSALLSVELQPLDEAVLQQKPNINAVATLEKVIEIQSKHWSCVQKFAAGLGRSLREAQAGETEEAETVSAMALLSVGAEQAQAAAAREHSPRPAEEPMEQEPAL
UniProt Q8WUI4: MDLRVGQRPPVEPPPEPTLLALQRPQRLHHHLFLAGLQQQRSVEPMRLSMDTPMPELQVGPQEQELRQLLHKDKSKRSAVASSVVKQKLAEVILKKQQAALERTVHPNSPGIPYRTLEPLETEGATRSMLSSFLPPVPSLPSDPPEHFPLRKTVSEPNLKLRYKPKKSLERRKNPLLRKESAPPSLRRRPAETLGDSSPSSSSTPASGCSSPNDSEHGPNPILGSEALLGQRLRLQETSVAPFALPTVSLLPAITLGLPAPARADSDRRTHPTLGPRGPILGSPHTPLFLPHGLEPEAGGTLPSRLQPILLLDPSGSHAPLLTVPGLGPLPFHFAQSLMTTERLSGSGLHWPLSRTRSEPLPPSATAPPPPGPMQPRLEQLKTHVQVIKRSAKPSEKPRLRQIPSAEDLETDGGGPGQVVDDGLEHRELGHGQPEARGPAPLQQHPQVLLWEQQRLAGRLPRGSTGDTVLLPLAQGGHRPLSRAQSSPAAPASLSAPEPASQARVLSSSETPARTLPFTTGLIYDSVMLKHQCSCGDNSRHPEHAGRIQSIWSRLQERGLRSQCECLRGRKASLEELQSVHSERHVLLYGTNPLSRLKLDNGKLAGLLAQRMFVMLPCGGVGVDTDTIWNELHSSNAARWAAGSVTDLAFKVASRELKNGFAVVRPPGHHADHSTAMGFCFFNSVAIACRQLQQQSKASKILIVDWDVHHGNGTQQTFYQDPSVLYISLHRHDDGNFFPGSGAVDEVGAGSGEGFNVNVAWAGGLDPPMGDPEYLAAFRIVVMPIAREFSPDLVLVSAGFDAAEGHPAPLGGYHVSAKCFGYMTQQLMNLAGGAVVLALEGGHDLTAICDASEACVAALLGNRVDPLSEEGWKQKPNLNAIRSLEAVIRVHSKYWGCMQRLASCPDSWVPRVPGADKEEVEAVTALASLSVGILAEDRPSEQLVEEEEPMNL
UniProt Q96DB2: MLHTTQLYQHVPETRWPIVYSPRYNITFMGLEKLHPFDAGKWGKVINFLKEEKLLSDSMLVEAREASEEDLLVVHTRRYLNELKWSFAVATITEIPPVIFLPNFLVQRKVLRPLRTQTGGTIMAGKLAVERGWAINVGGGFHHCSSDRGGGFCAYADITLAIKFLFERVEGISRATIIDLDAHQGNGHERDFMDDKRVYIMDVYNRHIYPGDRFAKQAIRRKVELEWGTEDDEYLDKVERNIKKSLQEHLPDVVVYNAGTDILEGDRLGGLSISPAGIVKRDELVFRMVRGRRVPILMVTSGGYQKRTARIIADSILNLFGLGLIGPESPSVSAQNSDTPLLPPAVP
UniProt P56524: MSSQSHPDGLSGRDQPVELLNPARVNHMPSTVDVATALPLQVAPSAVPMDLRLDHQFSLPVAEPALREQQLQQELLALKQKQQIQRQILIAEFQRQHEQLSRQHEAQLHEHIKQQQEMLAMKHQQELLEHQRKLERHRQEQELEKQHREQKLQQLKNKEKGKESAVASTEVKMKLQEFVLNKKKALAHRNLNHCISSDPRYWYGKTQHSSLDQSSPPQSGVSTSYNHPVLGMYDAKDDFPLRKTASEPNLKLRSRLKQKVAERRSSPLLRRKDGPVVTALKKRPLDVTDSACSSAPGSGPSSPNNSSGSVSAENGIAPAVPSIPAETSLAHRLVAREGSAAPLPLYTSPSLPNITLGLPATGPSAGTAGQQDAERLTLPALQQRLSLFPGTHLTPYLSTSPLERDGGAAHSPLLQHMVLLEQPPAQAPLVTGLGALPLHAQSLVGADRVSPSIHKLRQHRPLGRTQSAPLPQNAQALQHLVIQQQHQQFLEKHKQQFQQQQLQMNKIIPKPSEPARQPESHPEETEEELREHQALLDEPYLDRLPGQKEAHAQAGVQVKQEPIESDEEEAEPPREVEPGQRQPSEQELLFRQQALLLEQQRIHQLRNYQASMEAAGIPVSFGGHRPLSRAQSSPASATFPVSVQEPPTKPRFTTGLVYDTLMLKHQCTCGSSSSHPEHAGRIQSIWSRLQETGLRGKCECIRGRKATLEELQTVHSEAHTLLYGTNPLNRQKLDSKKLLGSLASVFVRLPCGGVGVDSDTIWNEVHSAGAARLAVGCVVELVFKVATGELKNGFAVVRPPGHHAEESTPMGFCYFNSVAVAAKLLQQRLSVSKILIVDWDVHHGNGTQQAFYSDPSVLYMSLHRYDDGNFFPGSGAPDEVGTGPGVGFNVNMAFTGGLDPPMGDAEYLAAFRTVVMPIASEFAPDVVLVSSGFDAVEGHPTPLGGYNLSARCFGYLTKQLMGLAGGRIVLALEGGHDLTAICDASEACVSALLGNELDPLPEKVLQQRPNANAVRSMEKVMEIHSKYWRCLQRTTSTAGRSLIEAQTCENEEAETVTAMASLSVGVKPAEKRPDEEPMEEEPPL
UniProt Q9UKV0: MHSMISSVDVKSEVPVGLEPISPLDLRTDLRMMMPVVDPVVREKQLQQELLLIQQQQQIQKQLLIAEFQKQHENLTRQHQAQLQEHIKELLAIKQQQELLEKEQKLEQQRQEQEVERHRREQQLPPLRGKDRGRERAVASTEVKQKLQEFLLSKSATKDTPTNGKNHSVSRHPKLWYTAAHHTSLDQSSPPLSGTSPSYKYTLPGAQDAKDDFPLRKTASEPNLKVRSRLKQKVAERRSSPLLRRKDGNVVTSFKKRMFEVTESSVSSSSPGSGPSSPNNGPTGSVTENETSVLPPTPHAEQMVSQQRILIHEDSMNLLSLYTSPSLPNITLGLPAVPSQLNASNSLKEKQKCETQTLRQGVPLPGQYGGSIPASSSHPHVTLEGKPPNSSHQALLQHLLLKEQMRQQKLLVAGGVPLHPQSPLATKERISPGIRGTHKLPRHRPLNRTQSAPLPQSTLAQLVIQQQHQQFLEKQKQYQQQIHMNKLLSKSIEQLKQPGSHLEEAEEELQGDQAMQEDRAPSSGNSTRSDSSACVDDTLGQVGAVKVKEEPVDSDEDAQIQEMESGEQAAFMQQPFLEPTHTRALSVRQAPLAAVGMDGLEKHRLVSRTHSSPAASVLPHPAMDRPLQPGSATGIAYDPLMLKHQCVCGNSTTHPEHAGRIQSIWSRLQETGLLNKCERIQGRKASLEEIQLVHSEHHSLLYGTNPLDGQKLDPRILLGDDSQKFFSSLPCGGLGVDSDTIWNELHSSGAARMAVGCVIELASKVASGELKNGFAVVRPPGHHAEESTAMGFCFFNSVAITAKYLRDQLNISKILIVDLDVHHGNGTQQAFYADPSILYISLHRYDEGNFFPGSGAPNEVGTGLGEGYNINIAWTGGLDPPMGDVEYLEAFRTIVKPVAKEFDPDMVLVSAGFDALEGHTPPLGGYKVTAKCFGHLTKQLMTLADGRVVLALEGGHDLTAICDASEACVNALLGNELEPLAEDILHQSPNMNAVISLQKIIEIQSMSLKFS
UniProt Q969S8: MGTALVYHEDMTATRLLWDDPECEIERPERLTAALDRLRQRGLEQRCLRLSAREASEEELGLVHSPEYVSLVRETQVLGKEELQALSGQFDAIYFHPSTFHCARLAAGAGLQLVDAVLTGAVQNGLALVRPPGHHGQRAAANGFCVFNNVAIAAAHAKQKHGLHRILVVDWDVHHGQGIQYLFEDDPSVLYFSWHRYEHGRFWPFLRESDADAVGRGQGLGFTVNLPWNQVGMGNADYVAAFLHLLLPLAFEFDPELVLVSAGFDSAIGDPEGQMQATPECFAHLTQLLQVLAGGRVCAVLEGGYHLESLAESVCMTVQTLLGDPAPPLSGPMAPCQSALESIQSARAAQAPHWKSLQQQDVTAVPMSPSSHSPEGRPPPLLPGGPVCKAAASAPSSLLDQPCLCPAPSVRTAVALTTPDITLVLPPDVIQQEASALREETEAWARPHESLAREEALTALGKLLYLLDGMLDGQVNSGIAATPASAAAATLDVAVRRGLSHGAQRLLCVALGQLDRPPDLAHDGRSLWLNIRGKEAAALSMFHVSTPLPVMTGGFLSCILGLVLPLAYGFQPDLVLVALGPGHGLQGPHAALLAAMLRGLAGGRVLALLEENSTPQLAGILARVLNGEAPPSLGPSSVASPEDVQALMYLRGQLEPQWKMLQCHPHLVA

Molecular target: Histone deacetylase (Homo sapiens) (UniProt Q13547+O15379+Q9UBN7+Q92769+Q9UQL6+Q8WUI4+Q9BY41+Q96DB2+P56524+Q9UKV0+Q969S8)
Test: Inhibition of HDAC isolated from human HeLa cells at 1 uM by fluorimetric assay
Assay type: cell-free

## O=C(CCCCC(=O)Nc1ccc2c(c1)/C(=C/c1ccc[nH]1)C(=O)N2)NO
  inhibition: > 20%

## O=C(CCCCCCC(=O)Nc1ccc2c(c1)/C(=C/c1ccc[nH]1)C(=O)N2)NO
  inhibition: > 20%
